Patent US20080103209A1, “Compounds And Methods For Treating Non-Inflammatory Pain Using Ppar Alpha Agonists” (The Regents of The University of California, priority 2004, published 2008)

Assay: Skin PEA concentration after topical application (HPLC/MS)
Conditions: PEA 450 μg topical, n=5

SMILES: CCCCCCCCCCCCCCCC(=O)NCCO [PEA, palmitoylethanolamide]
- PEA skin concentration after topical application: 250.2 ± 22.4 nmol/g
